The results in this text go back to article PMC11154958, “Mechanism of Nitrone Formation by a Flavin-Dependent Monooxygenase” (Biochemistry, 2024).

Amino acid sequences for entries named in this document (tags omitted). A change or cut given only in a name is not applied to a line headed by its entry.
UniProt A0A1B2TT15, entry or part of it: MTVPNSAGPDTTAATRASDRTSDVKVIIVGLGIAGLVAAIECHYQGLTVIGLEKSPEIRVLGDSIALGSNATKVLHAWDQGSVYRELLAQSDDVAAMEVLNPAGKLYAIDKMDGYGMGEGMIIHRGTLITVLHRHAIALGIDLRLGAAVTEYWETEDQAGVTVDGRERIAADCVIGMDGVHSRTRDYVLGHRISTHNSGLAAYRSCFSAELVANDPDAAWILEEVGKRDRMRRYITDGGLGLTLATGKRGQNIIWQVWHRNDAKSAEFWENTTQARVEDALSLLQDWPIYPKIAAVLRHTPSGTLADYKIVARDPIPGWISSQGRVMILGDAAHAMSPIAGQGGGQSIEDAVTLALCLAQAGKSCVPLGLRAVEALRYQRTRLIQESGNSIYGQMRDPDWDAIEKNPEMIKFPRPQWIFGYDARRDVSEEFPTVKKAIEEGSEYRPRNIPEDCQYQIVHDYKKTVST

Where two headings read alike, the source gives them in different places. A value given as a limit tells only on which side of the number the result lay.

The target of assay [1] is OxaD (Penicillium oxalicum, UniProt A0A1B2TT15). Conditions: read-out: KD(app).
Assay [2] concerns the target OxaD D63A (Penicillium oxalicum, UniProt A0A1B2TT15, D63A). Nature of the assay: Anaerobic stopped-flow, reductive-half reaction, D63A mutant. Conditions: read-out: KD(app). It is filed as biochemical, Penicillium oxalicum F30.
[3] abbreviates: OxaD 10 μM, 10 μM roquefortine C, NAD(P)H 0.0625–4 mM.

In the case of NADH, the Kd in assay [1] (setting [3]) is 1600 ± 30 µM.

For the substance NADPH, the Kd was 1200 ± 300 µM in assay [2] (D63A 10 μM, 10 μM roquefortine C); ≥ 4000 µM in assay [2] (D63A, No roquefortine C); 520 ± 30 µM in assay [1] (setting [3]); ≥ 4000 µM in assay [1] (OxaD, No roquefortine C, not saturated at 4 mM NADPH).
